Results taken from patent US10208121B2, “Anti-Axl antagonistic antibodies” (BERGEN TEKNOLOGIOVERFORING AS, priority 2014, dated 2019).

Test system: A549 tumours
Assay: A549 NSCLC xenograft in NUDE mice, FV2-GLYMAXX alone or with Erbitux
Assay type: in vivo, mouse
Settings: i.p. twice weekly for 3 weeks
Description: FV2-GLYMAXX is a defucosylated antibody with the CDRs and binding specificity of 10G5, but with multiple substitutions in the V-domain framework regions. To evaluate the anti-tumour activity of FV2-GLYMAXX in vivo, we used a mouse xenograft model of human non-small cell lung cancer (NSCLC). The human NSCLC A549 cells (ATCC #CCL-185) A549 cells were propagated in vitro as a monolayer culture in DMEM medium supplemented with 10% FBS, 2 mM L-Glutamine, 100 U/ml penicillin and 100 μg/ml streptomycin, 0.01M HEPES buffer, 0.45% D-(+)-glucose, 1 mM sodium pyruvate. NUDE mice were implanted subcutaneously (s.c.) into the flank with 5×10^6 A549 cells resuspended in serum-free medium/Matrigel (1:1). When the tumour size reached 100 mm^3 (Day 0 in FIG. 18), the animals were randomized and treated either with vehicle (SYNAGIS), Erbitux (20 mg/kg) or FV2-GLYMAXX (15 or 30 mg/kg either alone or in combination. Antibodies were administered by intraperitoneal (i.p.) injections twice weekly for 3 weeks.

## cetuximab [Erbitux]
  significance of single agent effect compared to isotype control (Synagis): statistically not significant
